Experimental data: US10385089B2, “Thionucleoside derivative or salt thereof, and pharmaceutical composition” (FUJIFILM Corporation, priority 2014, dated 2019)

System: gemcitabine-resistant strain of pancreatic cancer cell line Capan-1 (ATCC Number: HTB-79)
Experiment: Gemcitabine-resistant cell growth inhibition test (CellTiter Glo, total cellular ATP)
Conditions: Homo sapiens, CAPAN-1, 72 h, read-out: Growth inhibitory activity IC50 (μmol/L)

Compound	IC50 [µmol/L]
C[C@H](NP(=O)(OC[C@H]1S[C@@H](n2ccc(N)nc2=O)[C@@H](F)[C@@H]1O)Oc1ccccc1)C(=O)OCc1ccccc1 (mixture of isomers) [Example 1-1, (2S)-benzyl 2-(((RS)-(((2R,3S,4S,5R)-5-(4-amino-2-oxopyrimidin-1(2H)-yl)-4-fluoro-3-hydroxytetrahydrothiophen-2-yl)methoxy)(phenoxy)phosphoryl)amino)propanoate]	< 2
COC(=O)[C@H](C)NP(=O)(OC[C@H]1S[C@@H](n2ccc(N)nc2=O)[C@@H](F)[C@@H]1O)Oc1ccc(Cl)cc1 (mixture of isomers) [Example 1-2-5, (2S)-methyl 2-(((RS)-(((2R,3S,4S,5R)-5-(4-amino-2-oxopyrimidin-1(2H)-yl)-4-fluoro-3-hydroxy-tetrahydrothiophen-2-yl)methoxy)(4-chlorophenoxy)phosphoryl)amino)propanoate]	< 2
CCOC(=O)[C@H](CC(C)C)NP(=O)(OC[C@H]1S[C@@H](n2ccc(N)nc2=O)[C@@H](F)[C@@H]1O)Oc1ccccc1 (mixture of isomers) [Example 2-2, (2S)-ethyl 2-(((RS)-(((2R,3S,4S,5R)-5-(4-amino-2-oxopyrimidin-1(2H)-yl)-4-fluoro-3-hydroxytetrahydrothiophen-2-yl)methoxy)(phenoxy)phosphoryl)amino)-4-methylpentanoate]	5 to 15
C[C@H](NP(=O)(OC[C@H]1S[C@@H](n2ccc(N)nc2=O)[C@@H](F)[C@@H]1O)Oc1ccc(Cl)cc1)C(=O)OCc1ccccc1 (mixture of isomers) [Example 3-1, (2S)-benzyl 2-(((RS)-(((2R,3S,4S,5R)-5-(4-amino-2-oxopyrimidin-1(2H)-yl)-4-fluoro-3-hydroxytetrahydrothiophen-2-yl)methoxy)(4-chlorophenoxy)phosphoryl)amino)propanoate]	5 to 15
COC(=O)[C@H](C)NP(=O)(OC[C@H]1S[C@@H](n2ccc(N)nc2=O)[C@@H](F)[C@@H]1O)Oc1ccccc1 (mixture of isomers) [Example 3-2, (2S)-methyl 2-(((RS)-(((2R,3S,4S,5R)-5-(4-amino-2-oxopyrimidin-1(2H)-yl)-4-fluoro-3-hydroxytetrahydrothiophen-2-yl)methoxy)(phenoxy)phosphoryl)amino)propanoate]	5 to 15
C[C@H](NP(=O)(OC[C@H]1S[C@@H](n2ccc(N)nc2=O)[C@@H](F)[C@@H]1O)Oc1ccccc1)C(=O)OC1CCC1 (mixture of isomers) [Example 4-1, (2S)-cyclobutyl 2-(((RS)-(((2R,3S,4S,5R)-5-(4-amino-2-oxopyrimidin-1(2H)-yl)-4-fluoro-3-hydroxytetrahydrothiophen-2-yl)methoxy)(phenoxy)phosphoryl)amino)propanoate]	2 to 5
C[C@H](NP(=O)(OC[C@H]1S[C@@H](n2ccc(N)nc2=O)[C@@H](F)[C@@H]1O)Oc1ccc(F)cc1)C(=O)OCc1ccccc1 (mixture of isomers) [Example 5-2-1, (2S)-benzyl 2-(((RS)-(((2R,3S,4S,5R)-5-(4-amino-2-oxopyrimidin-1(2H)-yl)-4-fluoro-3-hydroxytetrahydrothiophen-2-yl)methoxy)(4-fluorophenoxy)phosphoryl)amino)propanoate]	5 to 15
COC(=O)[C@H](C)NP(=O)(OC[C@H]1S[C@@H](n2ccc(N)nc2=O)[C@@H](F)[C@@H]1O)Oc1ccc(F)cc1 (mixture of isomers) [Example 5-2-2, (2S)-methyl 2-(((RS)-(((2R,3S,4S,5R)-5-(4-amino-2-oxopyrimidin-1(2H)-yl)-4-fluoro-3-hydroxytetrahydrothiophen-2-yl)methoxy)(4-fluorophenoxy)phosphoryl)amino)propanoate]	5 to 15
C[C@H](NP(=O)(OC[C@H]1S[C@@H](n2ccc(N)nc2=O)[C@@H](F)[C@@H]1O)Oc1ccc(Br)cc1)C(=O)OCc1ccccc1 (mixture of isomers) [Example 5-2-3, (2S)-benzyl 2-(((RS)-(((2R,3S,4S,5R)-5-(4-amino-2-oxopyrimidin-1(2H)-yl)-4-fluoro-3-hydroxytetrahydrothiophen-2-yl)methoxy)(4-bromophenoxy)phosphoryl)amino)propanoate]	5 to 15
COC(=O)[C@H](C)NP(=O)(OC[C@H]1S[C@@H](n2ccc(N)nc2=O)[C@@H](F)[C@@H]1O)Oc1ccc(Br)cc1 (mixture of isomers) [Example 5-2-4, (2S)-methyl 2-(((RS)-(((2R,3S,4S,5R)-5-(4-amino-2-oxopyrimidin-1(2H)-yl)-4-fluoro-3-hydroxytetrahydrothiophen-2-yl)methoxy)(4-bromophenoxy)phosphoryl)amino)propanoate]	2 to 5
COC(=O)[C@H](C)NP(=O)(OC[C@H]1S[C@@H](n2ccc(N)nc2=O)[C@@H](F)[C@@H]1O)Oc1ccc(I)cc1 (mixture of isomers) [Example 5-2-5, (2S)-methyl 2-(((RS)-(((2R,3S,4S,5R)-5-(4-amino-2-oxopyrimidin-1(2H)-yl)-4-fluoro-3-hydroxytetrahydrothiophen-2-yl)methoxy)(4-iodophenoxy)phosphoryl)amino)propanoate]	2 to 5
Cc1ccc(OP(=O)(N[C@@H](C)C(=O)OCc2ccccc2)OC[C@H]2S[C@@H](n3ccc(N)nc3=O)[C@@H](F)[C@@H]2O)cc1 (mixture of isomers) [Example 5-2-6, (2S)-benzyl 2-(((RS)-(((2R,3S,4S,5R)-5-(4-amino-2-oxopyrimidin-1(2H)-yl)-4-fluoro-3-hydroxytetrahydrothiophen-2-yl)methoxy)(p-tolyloxy)phosphoryl)amino)propanoate]	5 to 15
COc1ccc(OP(=O)(N[C@@H](C)C(=O)OCc2ccccc2)OC[C@H]2S[C@@H](n3ccc(N)nc3=O)[C@@H](F)[C@@H]2O)cc1 (mixture of isomers) [Example 5-2-8, (2S)-benzyl 2-(((RS)-(((2R,3S,4S,5R)-5-(4-amino-2-oxopyrimidin-1(2H)-yl)-4-fluoro-3-hydroxytetrahydrothiophen-2-yl)methoxy)(4-methoxyphenoxy)phosphoryl)amino)propanoate]	5 to 15
COC(=O)[C@H](C)NP(=O)(OC[C@H]1S[C@@H](n2ccc(N)nc2=O)[C@@H](F)[C@@H]1O)Oc1ccc(OC)cc1 (mixture of isomers) [Example 5-2-9, (2S)-methyl 2-(((RS)-(((2R,3S,4S,5R)-5-(4-amino-2-oxopyrimidin-1(2H)-yl)-4-fluoro-3-hydroxytetrahydrothiophen-2-yl)methoxy)(4-methoxyphenoxy)phosphoryl)amino)propanoate]	5 to 15
C[C@H](NP(=O)(OC[C@H]1S[C@@H](n2ccc(N)nc2=O)[C@@H](F)[C@@H]1O)Oc1ccc(Cl)c(F)c1)C(=O)OCc1ccccc1 (mixture of isomers) [Example 6-1, (2S)-benzyl 2-(((RS)-(((2R,3S,4S,5R)-5-(4-amino-2-oxopyrimidin-1(2H)-yl)-4-fluoro-3-hydroxytetrahydrothiophen-2-yl)methoxy)(4-chloro-3-fluorophenoxy)phosphoryl)amino)propanoate]	5 to 15
C[C@H](NP(=O)(OC[C@H]1S[C@@H](n2ccc(N)nc2=O)[C@@H](F)[C@@H]1O)Oc1ccc(Cl)c(Cl)c1)C(=O)OCc1ccccc1 (mixture of isomers) [Example 6-2-1, (2S)-benzyl 2-(((RS)-(((2R,3S,4S,5R)-5-(4-amino-2-oxopyrimidin-1(2H)-yl)-4-fluoro-3-hydroxytetrahydrothiophen-2-yl)methoxy)(3,4-dichlorophenoxy)phosphoryl)amino)propanoate]	5 to 15
C[C@H](NP(=O)(OC[C@H]1S[C@@H](n2ccc(N)nc2=O)[C@@H](F)[C@@H]1O)Oc1ccc(F)cc1F)C(=O)OCc1ccccc1 (mixture of isomers) [Example 6-2-2, (2S)-benzyl 2-(((RS)-(((2R,3S,4S,5R)-5-(4-amino-2-oxopyrimidin-1(2H)-yl)-4-fluoro-3-hydroxytetrahydrothiophen-2-yl)methoxy)(2,4-difluorophenoxy)phosphoryl)amino)propanoate]	5 to 15
C[C@H](NP(=O)(OC[C@H]1S[C@@H](n2ccc(N)nc2=O)[C@@H](F)[C@@H]1O)Oc1ccc(F)cc1Cl)C(=O)OCc1ccccc1 (mixture of isomers) [Example 6-2-3, (2S)-benzyl 2-(((RS)-(((2R,3S,4S,5R)-5-(4-amino-2-oxopyrimidin-1(2H)-yl)-4-fluoro-3-hydroxytetrahydrothiophen-2-yl)methoxy)(2-chloro-4-fluorophenoxy)phosphoryl)amino)propanoate]	5 to 15
CC(C)(C)C(=O)SCCOP(=O)(OC[C@H]1S[C@@H](n2ccc(N)nc2=O)[C@@H](F)[C@@H]1O)Oc1ccccc1 (mixture of isomers) [Example 14-1, S-(2-(((RS)-(((2R,3S,4S,5R)-5-(4-amino-2-oxopyrimidin-1(2H)-yl)-4-fluoro-3-hydroxytetrahydrothiophen-2-yl)methoxy)(phenoxy)phosphoryl)oxy)ethyl) 2,2-dimethylpropanethioate]	2 to 5
CC(C)(C)C(=O)SCCCCOP(=O)(OC[C@H]1S[C@@H](n2ccc(N)nc2=O)[C@@H](F)[C@@H]1O)Oc1ccccc1 (mixture of isomers) [Example 14-2, S-(4-(((RS)-(((2R,3S,4S,5R)-5-(4-amino-2-oxopyrimidin-1(2H)-yl)-4-fluoro-3-hydroxytetrahydrothiophen-2-yl)methoxy)(phenoxy)phosphoryl)oxy)butyl) 2,2-dimethylpropanethioate]	5 to 15
COc1cccc2c1OP(=O)(OC[C@H]1S[C@@H](n3ccc(N)nc3=O)[C@@H](F)[C@@H]1O)OC2 (mixture of isomers) [Example 26-2-4, 4-amino-1-((2R,3S,4S,5R)-3-fluoro-4-hydroxy-5-((((RS)-8-methoxy-2-oxido-4H-benzo[d][1,3,2]dioxaphosphinin-2-yl)oxy)methyl)tetrahydrothiophen-2-yl)pyrimidin-2(1H)-one]	5 to 15
C[C@H](NP(=O)(OC[C@H]1S[C@@H](n2ccc(N)nc2=O)[C@@H](F)[C@@H]1O)Oc1ccccc1)C(=O)OC1CCCCC1 (mixture of isomers) [Example 4-2, (25)-cyclohexyl 2-(((RS)-(((2R,3S,4S,5R)-5-(4-amino-2-oxopyrimidin-1(2H)-yl)-4-fluoro-3-hydroxytetrahydrothiophen-2-yl)methoxy)(phenoxy)phosphoryl)amino)propanoate]	5 to 15
